The text below walks through data of article PMC5814047, “Peptidic inhibitors of insulin-degrading enzyme with potential for dermatological applications discovered via phage display” (PLoS ONE, 2018).

In assay [1] the target is T1, IDE (Homo sapiens, UniProt P14735).
T1 construct: made in house; host or cells: bacteria
T1 sequence (P14735 1-1019): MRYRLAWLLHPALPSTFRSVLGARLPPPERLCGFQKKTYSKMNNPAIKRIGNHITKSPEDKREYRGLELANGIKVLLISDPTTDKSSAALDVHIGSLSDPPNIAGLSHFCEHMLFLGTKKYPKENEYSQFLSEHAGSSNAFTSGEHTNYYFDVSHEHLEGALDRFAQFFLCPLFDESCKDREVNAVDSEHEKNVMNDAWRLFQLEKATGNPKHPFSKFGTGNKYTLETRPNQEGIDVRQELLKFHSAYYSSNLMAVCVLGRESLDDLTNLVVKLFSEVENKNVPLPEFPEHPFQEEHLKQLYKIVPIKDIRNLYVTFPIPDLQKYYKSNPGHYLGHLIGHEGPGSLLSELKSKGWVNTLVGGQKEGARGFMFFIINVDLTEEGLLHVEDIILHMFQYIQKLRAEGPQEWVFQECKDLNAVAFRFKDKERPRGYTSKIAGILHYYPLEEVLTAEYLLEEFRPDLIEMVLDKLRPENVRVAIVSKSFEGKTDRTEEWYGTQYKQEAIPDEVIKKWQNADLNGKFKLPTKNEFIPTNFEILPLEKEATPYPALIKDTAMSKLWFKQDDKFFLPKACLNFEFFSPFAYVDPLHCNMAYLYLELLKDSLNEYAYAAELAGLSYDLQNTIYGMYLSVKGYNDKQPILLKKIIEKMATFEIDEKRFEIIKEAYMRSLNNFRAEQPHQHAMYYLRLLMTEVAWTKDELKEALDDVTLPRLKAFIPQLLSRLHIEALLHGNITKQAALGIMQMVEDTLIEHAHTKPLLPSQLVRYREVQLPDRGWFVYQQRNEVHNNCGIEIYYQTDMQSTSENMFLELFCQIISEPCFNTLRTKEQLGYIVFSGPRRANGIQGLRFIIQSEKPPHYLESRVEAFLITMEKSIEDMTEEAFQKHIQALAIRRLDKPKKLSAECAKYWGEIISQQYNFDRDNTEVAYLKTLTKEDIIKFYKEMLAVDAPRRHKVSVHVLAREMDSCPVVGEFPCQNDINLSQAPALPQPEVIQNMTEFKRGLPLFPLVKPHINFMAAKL
In words: Vulnerability of peptides to degradation by IDE: 0 vs 4 h pre-incubation, then FRET1 assay. The settings on record: 0-hr incubation (immediately after combining enzyme and peptide), individual runs. The class given is biochemical.

For assay [2], the target named is T1, IDE. The class given is biochemical. To be noted: initial test at 500 uM.

For the compound `CC(=O)N[C@@H](Cc1c[nH]c2ccccc12)C(=O)N[C@@H](CC(=O)O)C(=O)N[C@@H](Cc1ccccc1)C(=O)N[C@@H](CCCNC(=N)N)C(=O)N[C@@H](CCC(N)=O)C(=O)N[C@@H](Cc1c[nH]c2ccccc12)C(=O)N[C@@H](Cc1c[nH]c2ccccc12)C(=O)N[C@@H](CCC(N)=O)C(N)=O` [P12-1D], the IC50 in assay [1] worked out at 209 µM.

On to LPWCTPHC [P12-3D], for which the “IC50 <500 uM?” value in assay [2] is on record as “YES”.

In the case of WCYPHCVT [P12-3C], the “IC50 <500 uM?” value in assay [2] is given as “YES”.
